For two molecules, Ki, IC50 and Ratio results are on record in ChEMBL document CHEMBL1127294, “Development of a model for the delta opioid receptor pharmacophore. 1. Conformationally restricted Tyr1 replacements in the cyclic delta receptor selective tetrapeptide Tyr-c[D-Cys-Phe-D-Pen]OH (JOM-13)” (J Med Chem, 1994).

Chains of the proteins cited; added tags and fusions are not shown.
UniProt P97266, whole entry: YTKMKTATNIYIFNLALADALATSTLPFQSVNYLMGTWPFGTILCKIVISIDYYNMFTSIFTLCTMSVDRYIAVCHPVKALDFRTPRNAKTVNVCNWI
UniProt P41143, whole entry, looked up: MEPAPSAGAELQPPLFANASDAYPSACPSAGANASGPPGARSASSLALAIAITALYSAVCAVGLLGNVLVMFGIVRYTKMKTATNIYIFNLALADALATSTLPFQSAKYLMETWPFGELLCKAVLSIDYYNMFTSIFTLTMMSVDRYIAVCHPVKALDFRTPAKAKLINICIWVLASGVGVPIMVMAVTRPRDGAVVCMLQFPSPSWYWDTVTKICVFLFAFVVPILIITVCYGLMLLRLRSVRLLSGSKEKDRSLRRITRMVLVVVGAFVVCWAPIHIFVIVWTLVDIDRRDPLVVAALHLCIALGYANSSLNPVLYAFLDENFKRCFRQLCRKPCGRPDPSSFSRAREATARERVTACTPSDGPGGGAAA
UniProt P35372, whole entry, looked up: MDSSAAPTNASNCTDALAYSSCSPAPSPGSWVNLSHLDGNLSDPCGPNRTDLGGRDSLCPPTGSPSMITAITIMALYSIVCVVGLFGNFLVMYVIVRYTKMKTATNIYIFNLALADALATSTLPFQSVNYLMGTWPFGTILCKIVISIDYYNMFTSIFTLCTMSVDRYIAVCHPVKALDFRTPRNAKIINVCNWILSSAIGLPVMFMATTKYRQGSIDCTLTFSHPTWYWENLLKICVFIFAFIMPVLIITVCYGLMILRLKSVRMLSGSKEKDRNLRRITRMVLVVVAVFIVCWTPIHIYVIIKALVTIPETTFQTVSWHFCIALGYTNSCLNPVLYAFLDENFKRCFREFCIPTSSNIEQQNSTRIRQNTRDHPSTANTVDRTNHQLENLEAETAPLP

For assay [1], the target named is T1, Mu-type opioid receptor (Cavia porcellus, UniProt P97266). Description: Displacement of [3H]DAMGO from mu opioid receptor of guinea pig brain membrane. (In general: Displacement assays read how much labelled ligand stays bound in the presence of the test substance.)
Assay [2] concerns the target T1, Mu-type opioid receptor. Nature of the assay: Inhibitory concentration of compound against mu opioid receptor in guinea pig ileum assay. The format is tissue-based. A digest of the protocol:
(§1)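 Electrically stimulated tissue in Krebs bicarbonate, 37 °C, 95% O2/5% CO2, 0.1 Hz, supramaximal voltage. MVD used male ICR mouse vas deferens, Mg-free buffer, 0.5 g tension, 2.0 ms pulses. GPI used male Hartley guinea pig ileum myenteric plexus strips, 1 g tension, 0.4 ms pulses. Cumulative agonist doses, 3 min each. IC50 from Hill fit to mean inhibition data, 2–4 tissues.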

In assay [3] the target is Opioid receptors; mu & delta (UniProt P41143+P35372). Description: Ratio of IC50 against mu opioid to IC50 against delta opioid receptor. A digest of the protocol: as §1

The Ki is the dissociation constant of the complex between target and ligand, obtained from inhibition or displacement. Low readings indicate higher affinity, high ones lower affinity. As a reminder, the IC50 is the concentration needed to halve the response being measured.

Turning to `CC1(C)SSC[C@H](NC(=O)[C@H](N)Cc2ccc(O)cc2)C(=O)N[C@@H](Cc2ccccc2)C(=O)N[C@@H]1C(=O)O`, the inhibitory constant (Ki) in assay [1] is > 10000 nM.

For `CC1(C)SSC[C@H](NC(=O)[C@@H](N)Cc2ccc(O)cc2)C(=O)N[C@@H](Cc2ccccc2)C(=O)N[C@@H]1C(=O)O`, the half-maximal inhibitory concentration (IC50) in assay [2] came out at 460 nM. For the same molecule, the Ratio in assay [3] is 110. Further, the inhibition constant (Ki) in assay [1] was found to be 52 nM.
